The record followed here is article PMC11860776 (Viruses, 2025).

The subject of this data set is UT7/EpoS1 cells. The experiment in a line: Cell cytotoxicity assay (alamarBlue HS) in UT7/EpoS1 cells. In kind it is cell-based. Conditions: 6 h + 48 h with compound, table: mean (95% CI). Background: The colour change of resazurin is a common sign of viable cells or microbes.

A word on the CC50: it is the concentration at which the toxic effect on the cells reaches its halfway point. On to Avermectin B1, for which the CC50 turned out to be 19.5 µM.
